# scFv variants of Ab-95 (light chain) against a SARS-CoV-2 spike peptide

Data: MIT Lincoln Laboratory AlphaSeq set, Engelhart et al. 2022, doi:10.1038/s41597-022-01779-4, as distributed in FLAb.

Binding partner: SARS-CoV-2 spike HR2 peptide, sequence PDVDLGDISGINAS.

The variants keep the heavy chain, the linker and the frameworks of Ab-95 (scFv order VH, a (GGGGS)3 linker, VL).
VH: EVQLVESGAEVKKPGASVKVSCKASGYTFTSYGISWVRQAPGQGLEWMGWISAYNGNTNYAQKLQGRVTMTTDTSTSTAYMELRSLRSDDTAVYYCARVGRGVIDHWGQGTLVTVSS
VL: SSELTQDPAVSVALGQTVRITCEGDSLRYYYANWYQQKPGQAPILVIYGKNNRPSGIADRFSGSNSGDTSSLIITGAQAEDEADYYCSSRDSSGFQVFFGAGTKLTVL

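The starting antibody came from a phage panning campaign against this peptide. The library (AAYL52) carries one to three amino acid substitutions per variant, with no insertions or deletions. In AlphaSeq, yeast of one mating type display the scFv and yeast of the other type display the target. After mating in shaken culture at 30 °C for 16 h, diploids were selected and their barcode pairs sequenced. The ratio of observed to expected reads was calibrated, replicate by replicate, on BCL2-family standards whose Kd was known from biolayer interferometry. There are three technical replicates.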

Variants are written as CDR1, CDR2 and CDR3 of the light chain (limits as in the source). Parent: EGDSLRYYYAN, GKNNRPS, SSRDSSGFQVF. This list gathers variants with a substitution at A32 (VL, numbered from residue 1). Scale: log10 of Kd in nM, estimated from mating counts; low values are strong binders. Replicates are averaged; those with no signal do not enter the mean. Where no diploid with the target was found in that replicate, the entry reads "nd": below detection, most likely a poor binder, though not proof of it. For reference, the parent read 2.31 as the reference entry and 2.25 as a member of this library.

The variant EGDSLRYYYQN | GKNNRGS | SSRDSSGFQVF showed nd, nd, nd (controls 2 of 9). For EGDSLRYYYRN | GKNNRPS | KSRPSSGFQVF, the assay gave nd, nd, nd (controls 2 of 9). The variant EGDSLRYYYTN | GKNKRPS | SSRGSSGFQVF showed nd, 3.02, 3.48 (mean 3.25; controls 0 of 9). The variant EADSLRYYYMN | GKNNRPK | SSRDSSGFQVF showed 2.78, 4.21, 2.88 (mean 3.29; controls 0 of 9). The variant EGDSLRYYYMN | WKNNRPS | SSRDSSGFQVL showed nd, nd, nd (controls 0 of 9). For EGDSLRYYYEN | GKNNRPS | SSRISQGFQVF, the assay gave nd, nd, nd (controls 3 of 9). For EGDSLRYNYYN | GKNNRPS | TSRDSSGFQVF, the assay gave 3.53, 2.78, 3.37 (mean 3.23; controls 5 of 9). The variant EGDSLRYYYRN | GKNNIPS | GSRDSSGFQVF gave nd, nd, nd (controls 3 of 9).

With EGDSIRYYYYN | GKNSRPS | SSRDSSGFQVF the result was 3.43, 5.10, nd (mean 4.27; controls 5 of 9). With EGDSLRYYYSN | CKNNRPS | SCRDSSGFQVF the result was nd, 5.81, nd (controls 2 of 9). The variant EGDSLFYYYSN | GWNNRPS | SSRDSSGFQVF showed nd, 4.04, 3.81 (mean 3.93; controls 0 of 9). The variant EGDSLRYYYFN | GKNNRPS | SSRDSSGFQIF gave nd, nd, nd (controls 0 of 9). For TGDSLRYYYMN | GKNNRPS | SSDDSSGFQVF, the assay gave 3.65, 3.56, 3.48 (mean 3.56; controls 3 of 9). With EGDSVRYYYVN | GKNNRPS | SSRDSSGFQVF the result was 3.35, 3.98, 4.28 (mean 3.87; controls 4 of 9). The variant EGNSLRQYYWN | GKNNRPS | SSRDSSGFQVF showed 4.06, nd, nd (controls 0 of 9). With ELDSLRYYYKN | GKNNRPS | SSRDSSGFQVF the result was 2.82, 2.75, 4.35 (mean 3.31; controls 1 of 9).

For EGDSEREYYHN | GKNNRPS | SSRDSSGFQVF, the assay gave nd, nd, nd (controls 0 of 9). With EGDSLRYYYWN | GNNNRPS | SSRDSSMFQVF the result was 2.88, 2.70, 2.41 (mean 2.66; controls 6 of 9). The variant EGDALRYEYKN | GKNNRPS | SSRDSSGFQVF gave 2.84, 2.35, 2.39 (mean 2.53; controls 3 of 9). The variant EPDSLRYYYEA | GKNNRPS | SSRDSSGFQVF showed nd, 5.28, nd (controls 1 of 9). The variant EGDSLRLYYTN | GKNNRIS | SSRDSSGFQVF showed nd, 3.36, nd (controls 1 of 9). With EGDSLRYYYLN | GKNNRPS | KSWDSSGFQVF the result was nd, nd, nd (controls 1 of 9). For EGDYLRYYYHN | GKNNRPS | SSRDSSGFQHF, the assay gave nd, 5.32, nd (controls 2 of 9). With QGDSLRYYYHN | GKNNRPS | SSRDSAGFQVF the result was 2.30, 3.11, nd (mean 2.70; controls 2 of 9).

The variant EGDSLRYYYEN | MKNNRPS | SSRDSSGFKVF gave 4.58, nd, nd (controls 5 of 9). For ETDSLRYYYVN | GKNNRPS | SSRCSSGFQVF, the assay gave 3.09, 4.97, nd (mean 4.03; controls 2 of 9). For EGDSLRYYYQF | GKNNRPS | SSYDSSGFQVF, the assay gave nd, nd, nd (controls 1 of 9). The variant EGDSLRYYYHN | GKHNRPS | SSRDSSMFQVF showed nd, nd, nd (controls 5 of 9). With EGDSLRYYYQS | GKNNRPS | SSRDSSGFQVF the result was 2.76, 3.13, 2.76 (mean 2.89; controls 4 of 9). The variant EGDSLRYYYRN | GKNNRPS | SSRDSSGFQVF gave 3.96, 2.84, 3.65 (mean 3.48; controls 2 of 9). With EGDSLRYYYSN | GKNNRPS | SSRDSVGFQRF the result was 2.40, 2.99, 2.30 (mean 2.56; controls 1 of 9). The variant EGDSLRYYYQN | GKNNRPS | SSRDSSGHEVF showed 4.96, 4.83, nd (mean 4.89; controls 4 of 9).

With EGDSLRYYYMN | GKNNRPS | SSRWSSGKQVF the result was 4.66, nd, nd (controls 7 of 9). With EGDSLRYYYKN | GKNNMPS | SSCDSSGFQVF the result was nd, nd, nd (controls 0 of 9). The variant EGDSWTYYYTN | GKNNRPS | SSRDSSGFQVF gave 3.49, 3.94, nd (mean 3.71; controls 3 of 9). With EGDSLRMYYNN | GKNNRPS | SCRDSSGFQVF the result was 5.26, 4.06, nd (mean 4.66; controls 2 of 9). The variant EGDSLRYYYSN | GKNNRPS | SERDSRGFQVF gave 3.89, nd, nd (controls 3 of 9). For EGDSLRYYYTN | GKNNRPS | SSLDSSGFDVF, the assay gave 3.45, nd, nd (controls 2 of 9). The variant EGDSLWFYYSN | GKNNRPS | SSRDSSGFQVF showed 4.47, 5.56, nd (mean 5.01; controls 5 of 9). For EGDSLRYYYSN | GKNNRPS | AFRDSSGFQVF, the assay gave nd, nd, 4.44 (controls 1 of 9).

The variant EGDSLRYYYTN | GKNNKPS | SSQDSSGFQVF showed nd, 3.62, nd (controls 2 of 9). For EGDSLRYYYSN | GKNAWPS | SSRDSSGFQVF, the assay gave nd, 4.71, 3.38 (mean 4.05; controls 5 of 9). With EGDSTRYYYSN | GKNTRPS | SSRDSSGFQVF the result was 3.33, 3.46, 2.80 (mean 3.19; controls 1 of 9). The variant EGDSDRYYYIN | GKNNRPS | STRDSSGFQVF gave 3.11, 4.47, 3.22 (mean 3.60; controls 6 of 9). With EGDKLSYYYSN | GKNNRPS | SSRDSSGFQVF the result was 4.88, nd, 4.44 (mean 4.66; controls 1 of 9). With EYDSLRYYYVN | GKNGRPS | SSRDSSGFQVF the result was 4.79, nd, nd (controls 2 of 9). The variant EGDSLRYYYRQ | GKNNRPS | SSRISSGFQVF showed 4.36, nd, nd (controls 2 of 9). The variant EGDSLRYYYEN | GKNSRPY | SSRDSSGFQVF gave 2.98, nd, nd (controls 1 of 9).

For EWDSLRYYYPN | GKNNRPS | SSRDSSGFQVF, the assay gave 2.03, 2.77, 2.80 (mean 2.53; controls 1 of 9). With EGDSLRYYYYN | GKNNRPS | SSRMSSGFQVC the result was nd, 4.82, nd (controls 2 of 9). For EGDSLRYYYQN | GKNYRPS | SSRDSSGFWVF, the assay gave 5.57, 4.90, nd (mean 5.24; controls 2 of 9).

From the list, the first 3 with no signal in any replicate:

CDR-L1	CDR-L2	CDR-L3	replicates, log10 nM	mean, log10 nM	empty controls
EGDSLRYYYQN	GKNNRGS	SSRDSSGFQVF	nd, nd, nd	nd	2/9
EGDSLRYYYRN	GKNNRPS	KSRPSSGFQVF	nd, nd, nd	nd	2/9
EGDSLRYYYMN	WKNNRPS	SSRDSSGFQVL	nd, nd, nd	nd	0/9

Empty control strains, which show no peptide, gave a signal in 28% of pairings with library AAYL52; the median was 3.91 and 95% of these signals were weaker than 2.90. No background was subtracted. For each scFv, signals with the empty controls are counted beside the result.